Earlier results as cited in patent US20210329915A1, “ABSORPTION PROMOTER, FLYING-INSECT PEST REPELLENT FRAGRANCE-CONTAINING COMPOSITION, AND FLYING-INSECT PEST REPELLENT PRODUCT” (DAINIHON JOCHUGIKU Co., Ltd., priority 2018, published 2021).

For hexylene glycol, the “Vapor pressure at 20° C.” value is listed as 6.7 Pa.
